Measured values: patent US20240216551A1, “RADIOPHARMACEUTICALS BASED ON ((R)-1-((6-HYDRAZINYLNICOTINOYL)-D-ALANYL)PYRROLIDIN-2-YL)BORONIC ACID (HYNIC-IFAP) FOR DETECTING THE OVEREXPRESSION OF FIBROBLAST ACTIVATION PROTEIN” (INSTITUTO NACIONAL DE INVESTIGACIONES NUCLEARES, priority 2021, published 2024)

Key:
lung tumors = details: human, in vivo
breast cancer tumors = details: human, in vivo

Substance: ^18F-FDG
- tumor detection by imaging (lung tumors): detect lung tumors with high sensitivity
- tumor detection by imaging (breast cancer tumors): detect with high sensitivity breast cancer tumors
